Measured values taken from PubChem BioAssay (NCI).
“And” between values parts separate entries of the source, which are not always exact repeats. Equal values may be shown once. The list shows a part of the results, in another mix than the full data.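 Note: values are percent growth. 100 is the growth of untreated cells, values between 100 and 0 indicate rising inhibition; between -100 and 0 indicates cell death.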 The source made the active and inactive calls. How the source made its calls: active means growth percent below 10; inactive means the rest.

Test system: UACC-62 melanoma
Experiment: NCI-60 one-dose screen, 48 h (100 = growth as untreated, 0 = no growth, -100 = all killed)
Conditions: 10 µM

SMILES | growth
CNc1ccccc1.O=[N+]([O-])c1cc([N+](=O)[O-])c(O)c([N+](=O)[O-])c1 | inactive: 95.4%
CCOP(=O)(CC)OCC | inactive: 96.1%
O=[N+]([O-])c1cc([N+](=O)[O-])c(O)c([N+](=O)[O-])c1.c1ccnnc1 | inactive: 99.2%
CCCOP(=S)(Cl)OCCC | inactive: 96.1%
CN(C)CCS | inactive: 105% and inactive: 108%
CCN(CC)CCS | inactive: 109%
CN(CCCl)CCCCCCCl | inactive: 93.2%
Cc1ccc(Nc2c([N+](=O)[O-])cc([N+](=O)[O-])cc2[N+](=O)[O-])cc1 | inactive: 62.5%
CN1CCN(CCOC(=O)C(O)(c2ccccc2)c2ccccc2)CC1 | inactive: 95.3%
NN/C(N)=N/[N+](=O)[O-] | inactive: 101%
CP(=S)(Cl)N(CCCl)CCCl (stereo not drawn) | inactive: 99.5%
CC[N+](C)(CC)Cc1cc(Cc2ccccc2)ccc1OC(=O)N(C)C | inactive: 98.4%
CP(=O)(OCCCCl)N(CCCl)CCCl (stereo not drawn) | inactive: 103%
O=[N+]([O-])c1cccc([N+](=O)[O-])c1O | inactive: 103%
COC(=O)C(O)(c1ccccc1)c1ccccc1 | inactive: 90.6%
Cc1c([N+](=O)[O-])c(C)c([N+](=O)[O-])c(Nc2c([N+](=O)[O-])c(C)c([N+](=O)[O-])c(C)c2[N+](=O)[O-])c1[N+](=O)[O-] | active: -0.239%

Test system: LOX IMVI melanoma
Experiment: as above
Conditions: 10 µM

SMILES | growth
NC(=NCCN/C(N)=N/[N+](=O)[O-])N[N+](=O)[O-] | inactive: 94.9%
O=[N+]([O-])N(CCN(CC(Br)([N+](=O)[O-])[N+](=O)[O-])[N+](=O)[O-])CC(Br)([N+](=O)[O-])[N+](=O)[O-] | inactive: 88.7%
CN(C)Nc1c([N+](=O)[O-])cc([N+](=O)[O-])cc1[N+](=O)[O-] | inactive: 94.1%
O=[N+]([O-])OCCOc1ccc([N+](=O)[O-])cc1[N+](=O)[O-] | inactive: 102%
N=C(N)N(N)[N+](=O)[O-] | inactive: 108%
O=[N+]([O-])c1cc([N+](=O)[O-])c(C(F)(F)F)c([N+](=O)[O-])c1O | inactive: 96.9%
CCOC(=O)CSc1c(N)c(C)nn1C.O=[N+]([O-])c1cc([N+](=O)[O-])c(O)c([N+](=O)[O-])c1 | inactive: 105%
O=[N+]([O-])c1ccc(OP2(=O)COCCO2)cc1 (stereo not drawn) | inactive: 100%
CCN(C)CC.O=[N+]([O-])c1cc([N+](=O)[O-])c(O)c([N+](=O)[O-])c1 | inactive: 97.7%
OCCSCCO | inactive: 99.9%
CC(C)N1CCN(CCOC(=O)C(O)(c2ccccc2)c2ccccc2)CC1 | inactive: 94.2%
O=[N+]([O-])c1ccc(Oc2c([N+](=O)[O-])cc([N+](=O)[O-])cc2[N+](=O)[O-])cc1 | inactive: 97.8%
O=C(Cl)c1c([N+](=O)[O-])cc([N+](=O)[O-])cc1[N+](=O)[O-] | inactive: 12.5%
O=[N+]([O-])c1cc([N+](=O)[O-])c(Nc2ccc(Cl)cc2)c([N+](=O)[O-])c1 | active: 5.78%
CNc1ccccc1.O=[N+]([O-])c1cc([N+](=O)[O-])c(O)c([N+](=O)[O-])c1 | inactive: 97.6%
CCOP(=O)(CC)OCC | inactive: 99.3%

SMILES | growth
O=[N+]([O-])c1cc([N+](=O)[O-])c(O)c([N+](=O)[O-])c1.c1ccnnc1 | inactive: 102%
CCCOP(=S)(Cl)OCCC | inactive: 97%
CN(C)CCS | inactive: 109% and inactive: 95.6%
CCN(CC)CCS | inactive: 107%
CN(CCCl)CCCCCCCl | inactive: 95.8%
Cc1ccc(Nc2c([N+](=O)[O-])cc([N+](=O)[O-])cc2[N+](=O)[O-])cc1 | inactive: 74.8%
CN1CCN(CCOC(=O)C(O)(c2ccccc2)c2ccccc2)CC1 | inactive: 94.6%
NN/C(N)=N/[N+](=O)[O-] | inactive: 95.9%
CP(=S)(Cl)N(CCCl)CCCl (stereo not drawn) | inactive: 97.8%
CC[N+](C)(CC)Cc1cc(Cc2ccccc2)ccc1OC(=O)N(C)C | inactive: 94.6%
Clc1ccccc1SCCBr | inactive: 101%
CP(=O)(OCCCCl)N(CCCl)CCCl (stereo not drawn) | inactive: 105%
O=[N+]([O-])c1cccc([N+](=O)[O-])c1O | inactive: 103%
COC(=O)C(O)(c1ccccc1)c1ccccc1 | inactive: 99.8%
Cc1c([N+](=O)[O-])c(C)c([N+](=O)[O-])c(Nc2c([N+](=O)[O-])c(C)c([N+](=O)[O-])c(C)c2[N+](=O)[O-])c1[N+](=O)[O-] | active: -7.02%

Test system: SK-MEL-28 melanoma
Experiment: as above
Conditions: 10 µM

SMILES | growth
NC(=NCCN/C(N)=N/[N+](=O)[O-])N[N+](=O)[O-] | inactive: 113%
O=[N+]([O-])N(CCN(CC(Br)([N+](=O)[O-])[N+](=O)[O-])[N+](=O)[O-])CC(Br)([N+](=O)[O-])[N+](=O)[O-] | inactive: 111%
CN(C)Nc1c([N+](=O)[O-])cc([N+](=O)[O-])cc1[N+](=O)[O-] | inactive: 119%
O=[N+]([O-])OCCOc1ccc([N+](=O)[O-])cc1[N+](=O)[O-] | inactive: 111%
N=C(N)N(N)[N+](=O)[O-] | inactive: 112%
O=[N+]([O-])c1cc([N+](=O)[O-])c(C(F)(F)F)c([N+](=O)[O-])c1O | inactive: 97.9%
CCOC(=O)CSc1c(N)c(C)nn1C.O=[N+]([O-])c1cc([N+](=O)[O-])c(O)c([N+](=O)[O-])c1 | inactive: 101%
O=[N+]([O-])c1ccc(OP2(=O)COCCO2)cc1 (stereo not drawn) | inactive: 104%
CCN(C)CC.O=[N+]([O-])c1cc([N+](=O)[O-])c(O)c([N+](=O)[O-])c1 | inactive: 109%
OCCSCCO | inactive: 121%
CC(C)N1CCN(CCOC(=O)C(O)(c2ccccc2)c2ccccc2)CC1 | inactive: 104%
O=[N+]([O-])c1ccc(Oc2c([N+](=O)[O-])cc([N+](=O)[O-])cc2[N+](=O)[O-])cc1 | inactive: 112%
O=C(Cl)c1c([N+](=O)[O-])cc([N+](=O)[O-])cc1[N+](=O)[O-] | inactive: 37.2%
O=[N+]([O-])c1cc([N+](=O)[O-])c(Nc2ccc(Cl)cc2)c([N+](=O)[O-])c1 | inactive: 81.4%
CNc1ccccc1.O=[N+]([O-])c1cc([N+](=O)[O-])c(O)c([N+](=O)[O-])c1 | inactive: 103%
CCOP(=O)(CC)OCC | inactive: 103%

SMILES | growth
O=[N+]([O-])c1cc([N+](=O)[O-])c(O)c([N+](=O)[O-])c1.c1ccnnc1 | inactive: 106%
CCCOP(=S)(Cl)OCCC | inactive: 109%
CN(C)CCS | inactive: 109% and inactive: 114%
CCN(CC)CCS | inactive: 114%
CN(CCCl)CCCCCCCl | inactive: 107%
Cc1ccc(Nc2c([N+](=O)[O-])cc([N+](=O)[O-])cc2[N+](=O)[O-])cc1 | inactive: 97.2%
CN1CCN(CCOC(=O)C(O)(c2ccccc2)c2ccccc2)CC1 | inactive: 95.9%
NN/C(N)=N/[N+](=O)[O-] | inactive: 107%
CP(=S)(Cl)N(CCCl)CCCl (stereo not drawn) | inactive: 96.8%
CC[N+](C)(CC)Cc1cc(Cc2ccccc2)ccc1OC(=O)N(C)C | inactive: 104%
Clc1ccccc1SCCBr | inactive: 111%
CP(=O)(OCCCCl)N(CCCl)CCCl (stereo not drawn) | inactive: 101%
O=[N+]([O-])c1cccc([N+](=O)[O-])c1O | inactive: 111%
COC(=O)C(O)(c1ccccc1)c1ccccc1 | inactive: 104%
Cc1c([N+](=O)[O-])c(C)c([N+](=O)[O-])c(Nc2c([N+](=O)[O-])c(C)c([N+](=O)[O-])c(C)c2[N+](=O)[O-])c1[N+](=O)[O-] | inactive: 20.2%
